High-throughput results (PubChem BioAssay)
GLP-1R agonist: activates the human GLP-1 receptor. P43220. HEK293 GLP-1R CRE-luciferase, luminescence, 4-6 h; cells express a hypersensitive GLP-1R form. Potency, µM (titrated, usually from 45.6 µM), without a hit: at the highest dose activation, hits mostly activators. hit rate 0.007% among 380,000. AID 624172; also: potency is read from the fitted curve at half-maximal effect; % of control where 0% means no effect
PTHR1 agonist: PTHR1 (human) receptor agonism | Q03431 | HEK293 GP2 PTHR1 cells, GloSensor cAMP luminescence, 1 h | Potency, µM (top dose mostly 115 µM), without a hit: top-dose activation, usual class: activators | hit rate 0.075% among 410,000 | AID 743266; also: potency is read from the fitted curve at half-maximal effect; nearly all actives have a fitted effect of over 55% in size
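HEK-293-derived GP2 cells expressing PTHR1 and a GloSensor cAMP reporter, 3,000/well, plated overnight, given luciferin plus IBMX (each 0.5 mM as added) for 1 h at 37 °C, then compound for 1 h at 37 °C. Luminescence was read after 15 min at room temperature.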
Pin1 inhibitor: human Pin1 inhibition. Q13526. Pin1 FP peptide displacement, HiFluor488, 10 min. Potency, µM (highest dose often 115 µM), inactives show at the top dose activity, negative = inhibition, actives largely listed as inhibitors. hit rate 0.009% among 390,000. AID 504891; active = well fitted inhibition curve with a large enough effect in the polarisation, with a control signal flat, not every such curve was filed as active; inconclusive = small, poorly fitted or top-dose-only effect, or effect the other way, or a change in a side signal; inactive = no such curve, though single readings can be large or run the other way; the % refers to the polarisation; also: potency is read from the fitted curve at half-maximal effect; % is scaled to controls: 0 for no effect and ±100 for the full control effect
miR-21 reporter: miR-21 reporter, rising signal | HeLa miR-21 FLuc reporter, luciferase, 48 h | Potency, µM (doses to about 38.3 µM), inactives show at the top dose reporter change, positive = more light | 340,000 tested, under 10 active | AID 2288; active = well fitted rising curve with a large enough effect; inconclusive = small, poorly fitted or top-dose-only effect; inactive = no such curve, though single readings can be large or run the other way;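 note: % of control where 0% means no effect; miR-21 action dims this reporter so a rising signal means less miR-21 action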
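HeLa cells stably expressing CMV-driven firefly luciferase with a downstream miR-21 binding sequence, endogenously expressing miR-21, were treated with titrations (up to about 40uM final) for 48 hours at 37 degree Celsius. Luciferase luminescence was read after lysis.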
GLP1R inv ag: GLP-1 receptor (human) inverse agonism | AID 624417 | P43220 | hit rate 1.6% among 410,000 | Potency, µM (series often up to 38.3 µM), for the others: at the highest dose activity change, negative = inhibition, actives largely listed as inhibitors | HEK293 GLP-1R CRE-luciferase, luminescence, 24 h; GLP-1R form is constitutively active; also: potency is read from the fitted curve at half-maximal effect; % is scaled to controls: 0 for no effect and ±100 for the full control effect; nearly all actives have a fitted effect of over 55% in size
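Using stably transfected HEK293 (constitutively active GLP-1R, cAMP-luciferase reporter), compounds were incubated 24 hr and luciferase measured by luminescence.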
GLP1R cytotox: cytotoxicity in counter-screen for GLP-1R inverse agonists. HEK293 cAMP-luciferase reporter cells, luminescence, 24 h. Potency, µM (top dose mostly 38.3 µM), inactives show at the highest dose activity change, negative = inhibition, usual class: inhibitors. hit rate 0.13% among 410,000;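 also: loss of luciferase light is scored as toxicity; potency is read from the fitted curve at half-maximal effect; % is scaled to controls: 0 for no effect and ±100 for the full control effect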
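To flag toxic compounds, the library was rerun on cells for 24 hr at 37 deg C and 5% CO2. Viability-linked luminescence was captured 12 min after adding luciferase detection reagent.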
An asterisk follows results filed as active; i = inactive; ? = inconclusive; · = no result given; [ ] = dose if it differs, or a comment. In the library only some 1.7% were active in any assay of this set; here they are far more common. Unless noted, calls follow the shape of the dose curve; as a rule, active = well fitted curve in the direction sought with a large enough effect; inconclusive = small, poorly fitted or top-dose-only effect, or another doubt; inactive = no such curve, though single readings can be large; an effect the other way counts as inactive or inconclusive.

Screens by letter: A = GLP-1R agonist; B = PTHR1 agonist; C = Pin1 inhibitor; D = miR-21 reporter; E = GLP1R inv ag; F = GLP1R cytotox
> Cc1ccc(OCC(=O)N2CCN(C3CCC(c4ccccc4)CC3)CC2)cc1 (stereo not drawn)
  A: 9%	B: -38%	C: ?	D: 3%	E: 11µM*	F: 0%

> O=C(COc1ccc(Br)cc1)N1CCN(C2CCCC2)CC1
  A: 0%	B: -1%	C: 1%	D: -1%	E: -24%	F: 14%

> CN(C)c1ccc(C2CC(c3c(O)n(C4CCCCC4)c(=O)[nH]c3=O)=Nc3ccccc3S2)cc1 (stereo not drawn)
  A: ·	B: -19%	C: -1%	D: -8%	E: ?	F: 3%

> CC(C)(C)c1ccc(C(=O)C2CCCN(C3CCC3)C2)cc1 (stereo not drawn)
  A: 26%	B: i	C: 0%	D: 1%	E: 10µM*	F: -9%

> CC(C)(C)c1ccc(C(=O)C2CCCN(Cc3ccon3)C2)cc1 (stereo not drawn)
  A: -2%	B: -31%	C: 2%	D: -40%	E: ?	F: 3%

> COc1cc(CCN)c(OC)cc1Br
  A: -4%[96 µM]	B: ·	C: ·	D: ·	E: ·	F: ·

> CC(=O)c1ccccc1OCC(O)CN1CCN(CCN2C(=O)c3cccc4cccc(c34)C2=O)CC1 (stereo not drawn)
  A: -1%	B: -10%	C: 3%	D: 28%	E: ?	F: 11µM*

> CN[C@H]1C[C@@H](N)[C@H](O)[C@@H](O[C@@H]2O[C@H](CO)[C@H](O)[C@@H]3O[C@]4(O[C@@H]23)O[C@H]([C@@H](N)CO)[C@H](O)[C@@H](O)[C@H]4O)[C@@H]1O
  A: -4%	B: ·	C: ·	D: ·	E: ·	F: ·

2 entries from above, as tab-separated lines:
SMILES	GLP-1R agonist	PTHR1 agonist	Pin1 inhibitor	miR-21 reporter	GLP1R inv ag	GLP1R cytotox
CC(C)(C)c1ccc(C(=O)C2CCCN(C3CCC3)C2)cc1 (stereo not drawn)	26%	i	0%	1%	10µM*	-9%
CC(C)(C)c1ccc(C(=O)C2CCCN(Cc3ccon3)C2)cc1 (stereo not drawn)	-2%	-31%	2%	-40%	?	3%
